Columns and labels:
EZH2 (WT) = EZH2 (WT) (Homo sapiens, UniProt Q15910); test: EZH2 biochemical Ki
EZH2 (Y646) = EZH2 (Y646) (Homo sapiens, UniProt Q15910, Y641F); test: EZH2 biochemical Ki

Sequences of proteins named here, by UniProt entry; tags and fusion partners are left off.
UniProt Q15910, whole entry: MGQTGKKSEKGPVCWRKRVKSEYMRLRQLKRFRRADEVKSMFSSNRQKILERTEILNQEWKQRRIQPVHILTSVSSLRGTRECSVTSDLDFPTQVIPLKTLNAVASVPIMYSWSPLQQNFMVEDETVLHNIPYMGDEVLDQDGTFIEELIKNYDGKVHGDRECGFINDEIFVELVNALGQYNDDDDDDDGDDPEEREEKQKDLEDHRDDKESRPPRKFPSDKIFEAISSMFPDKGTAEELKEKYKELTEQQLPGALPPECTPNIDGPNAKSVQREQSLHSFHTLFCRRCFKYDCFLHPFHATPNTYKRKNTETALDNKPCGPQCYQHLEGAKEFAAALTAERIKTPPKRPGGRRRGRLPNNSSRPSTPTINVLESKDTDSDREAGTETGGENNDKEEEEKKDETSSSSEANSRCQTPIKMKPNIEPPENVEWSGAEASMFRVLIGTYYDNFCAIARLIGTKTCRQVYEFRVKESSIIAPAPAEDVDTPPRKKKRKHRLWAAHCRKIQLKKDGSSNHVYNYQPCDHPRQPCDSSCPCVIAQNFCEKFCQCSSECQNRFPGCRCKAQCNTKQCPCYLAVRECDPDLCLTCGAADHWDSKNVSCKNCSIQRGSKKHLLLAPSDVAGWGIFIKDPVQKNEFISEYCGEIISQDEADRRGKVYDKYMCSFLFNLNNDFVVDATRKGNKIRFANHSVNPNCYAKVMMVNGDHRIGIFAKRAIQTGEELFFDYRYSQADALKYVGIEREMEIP
UniProt Q15910, whole entry Y641F: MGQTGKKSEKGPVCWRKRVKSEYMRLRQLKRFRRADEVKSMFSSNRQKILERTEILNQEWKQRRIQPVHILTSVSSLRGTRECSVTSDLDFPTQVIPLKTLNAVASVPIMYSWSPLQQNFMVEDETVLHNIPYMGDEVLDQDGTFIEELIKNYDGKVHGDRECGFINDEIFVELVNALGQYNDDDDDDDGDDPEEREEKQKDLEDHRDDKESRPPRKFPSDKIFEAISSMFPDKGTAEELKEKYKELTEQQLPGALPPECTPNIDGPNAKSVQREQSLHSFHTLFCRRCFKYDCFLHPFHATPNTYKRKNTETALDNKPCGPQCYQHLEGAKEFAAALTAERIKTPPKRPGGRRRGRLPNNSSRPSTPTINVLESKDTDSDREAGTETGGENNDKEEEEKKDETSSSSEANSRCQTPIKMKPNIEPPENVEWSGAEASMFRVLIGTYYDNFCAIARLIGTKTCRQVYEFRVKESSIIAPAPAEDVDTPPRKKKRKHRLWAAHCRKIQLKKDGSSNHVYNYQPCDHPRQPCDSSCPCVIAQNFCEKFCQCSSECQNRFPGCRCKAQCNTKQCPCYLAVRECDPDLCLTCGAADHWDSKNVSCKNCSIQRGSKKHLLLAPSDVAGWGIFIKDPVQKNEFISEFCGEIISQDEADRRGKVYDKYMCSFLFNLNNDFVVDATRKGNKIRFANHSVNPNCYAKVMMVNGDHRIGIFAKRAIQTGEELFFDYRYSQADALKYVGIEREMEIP

**Q.** What does the source list for `CCN(c1cc(C#CCN2CCOCC2)cc(C(=O)NCc2c(C)cc(C)[nH]c2=O)c1C)[C@H]1CC[C@H](N(C)CCOC)CC1` [EPZ011989, N-((4,6-Dimethyl-2-oxo-1,2-dihydropyridin-3-yl)methyl)-3-(ethyl((trans)-4-((2-methoxyethyl)(methyl)amino)cyclohexyl)amino)-2-methyl-5-(3-morpholinoprop-1-yn-1-yl)benzamide]?
**A.** Ki (EZH2 (WT)): < 3 nM; Ki (EZH2 (Y646)): < 3 nM

Reference: paper PMC4434464 (ACS Medicinal Chemistry Letters, 2015)
